# Experimental data reported in publication PMC2806825, “The Expression Level of CB1 and CB2 Receptors Determines Their Efficacy at Inducing Apoptosis in Astrocytomas” (PLoS ONE, 2010).
# Protein sequences, listed by entry. Tags and fused reporters are not part of them.
# UniProt P47746, whole entry: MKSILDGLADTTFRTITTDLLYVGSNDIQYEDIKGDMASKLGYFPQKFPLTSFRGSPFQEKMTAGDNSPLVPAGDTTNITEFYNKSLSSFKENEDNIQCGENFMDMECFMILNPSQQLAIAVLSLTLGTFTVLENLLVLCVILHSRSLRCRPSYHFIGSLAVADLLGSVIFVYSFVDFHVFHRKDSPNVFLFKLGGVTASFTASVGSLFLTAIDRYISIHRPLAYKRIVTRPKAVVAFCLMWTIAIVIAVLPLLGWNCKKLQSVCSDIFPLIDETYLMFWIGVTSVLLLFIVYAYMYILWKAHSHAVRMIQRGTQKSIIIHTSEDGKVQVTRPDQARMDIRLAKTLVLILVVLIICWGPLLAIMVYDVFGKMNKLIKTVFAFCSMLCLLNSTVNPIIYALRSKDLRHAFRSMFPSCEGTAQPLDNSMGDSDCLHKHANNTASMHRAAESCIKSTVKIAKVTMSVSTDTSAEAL
# Assays:
# CB1 receptors [1] = biological target: T1, CB1 receptors (Mus musculus, UniProt P47746); experiment: ERK1/2 phosphorylation by Western blot in CB1-expressing DBT subclones; type: cell-based; settings: antagonist 5 µM added 10 min before CP
# T1 construct: expressed in transfected cells
# CB1 receptors [2] = biological target: T1, CB1 receptors; experiment: AKT phosphorylation by Luminex multiplex immunoassay in CB1-expressing DBT subclones; type: cell-based; settings: antagonist 5 µM added 10 min before CP
smiles,measurement,setting,value
"Cc1c(C(=O)NN2CCCCC2)nn(-c2ccc(Cl)cc2Cl)c1-c1ccc(Cl)cc1 [SR141716A, 5-(4-chlorophenyl)-1-(2,4-dichlorophenyl)-4-methyl-N-(1-piperidyl)-1H-pyrazole-3-carboxamide]","Effect on CP-55,940 (1 µM)-induced ERK1/2 phosphorylation",CB1 receptors [1],significantly attenuated
same,"Effect on CP-55,940 (1 µM)-induced AKT phosphorylation",CB1 receptors [2],antagonized
